Values quoted from earlier work in patent US20080200635A1, “POLYSILANE COMPOUND AND SYNTHESIS METHOD, ULTRAVIOLET-RAY CURABLE INK COMPOSITION, INKJET RECORDING METHOD AND APPARATUS, AND INK CONTAINER” (SEIKO EPSON CORPORATION, priority 2007, published 2008).

Details: primary irritation index; cited from earlier work

Glycerin PO-modified triacrylate
P.I.I.: 0.8
